Only a part is listed here, and it is no random draw. Active and inactive are the calls of the source. No stated cut-off is given here; in the data, active means inhibition above about 21%; inactive means the rest.
Biological target: Receptor-interacting serine/threonine-protein kinase 2 (Homo sapiens) (UniProt O43353)
Assay: NOD2-RIPK2 binding disruptors in cells, primary screen, fluorescence, CHO cells, BLA complementation (AID 624267);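 further: 0% = vehicle only and 100% = reference blocker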
Settings: CHO BLA complementation NOD2-RIPK2, CCF4 ratio; at 4.98 µM; active compounds read high

Chains of the proteins cited; added tags and fusions are not shown.
UniProt O43353, whole entry: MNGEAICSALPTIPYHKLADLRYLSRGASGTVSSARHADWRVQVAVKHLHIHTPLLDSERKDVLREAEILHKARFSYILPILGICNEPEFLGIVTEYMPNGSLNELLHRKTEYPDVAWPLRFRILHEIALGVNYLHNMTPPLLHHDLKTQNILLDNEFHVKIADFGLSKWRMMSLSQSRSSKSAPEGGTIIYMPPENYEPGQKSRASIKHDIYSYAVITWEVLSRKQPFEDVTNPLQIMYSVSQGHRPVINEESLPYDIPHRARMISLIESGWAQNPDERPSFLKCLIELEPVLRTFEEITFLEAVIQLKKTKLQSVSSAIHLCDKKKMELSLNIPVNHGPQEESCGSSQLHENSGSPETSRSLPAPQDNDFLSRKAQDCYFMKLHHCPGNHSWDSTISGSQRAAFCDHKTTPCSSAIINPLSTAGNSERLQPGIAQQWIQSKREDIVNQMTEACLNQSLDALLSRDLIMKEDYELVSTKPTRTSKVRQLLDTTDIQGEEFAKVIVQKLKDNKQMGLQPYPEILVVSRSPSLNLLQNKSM

SMILES	inhibition
CP(=O)(Nc1ccccn1)Oc1ccc(Cl)cc1 (configuration not stated)	inactive: -8.72%
CCOP(C)(=S)SCC(=O)NC(C)C(=O)O (configuration not stated)	inactive: 4.16%
O=[N+]([O-])c1cc([N+](=O)[O-])c(O)c([N+](=O)[O-])c1.c1ccc(Oc2ccncc2)cc1	inactive: -11.6%
CCOC(=O)c1ccc(NP(C)(=O)Oc2ccc(OC)cc2)cc1 (configuration not stated)	inactive: -1.53%
Cc1cc(C)cc(OP(C)(=O)Nc2ccc(SC(F)(F)F)cc2)c1 (configuration not stated)	inactive: 1.27%
CP(=O)(NC(=O)Nc1ccccc1)Oc1ccccc1 (configuration not stated)	inactive: -5.88%
CCc1ccc(OP(C)(=O)N2CCN(c3ccc([N+](=O)[O-])cc3)CC2)cc1 (configuration not stated)	inactive: 15.5%
CP(=O)(Oc1ccccc1)OC(c1ccccc1)C(F)(F)F (configuration not stated)	inactive: -11.8%
CP(=O)(Nc1ccc(SC(F)(F)F)cc1)Oc1ccc(Cl)cc1 (configuration not stated)	inactive: 10.5%
Cc1ccc(Nc2c([N+](=O)[O-])cc([N+](=O)[O-])cc2[N+](=O)[O-])cc1	inactive: -0.02%
Cc1cccc(C)c1OP(C)(=O)Nc1ccc(SC(F)(F)F)cc1 (configuration not stated)	inactive: -6.55%
COc1ccccc1OP(C)(=O)Nc1ccccc1 (configuration not stated)	inactive: -14.7%
CP(=O)(Nc1ccccc1Br)Oc1ccccc1 (configuration not stated)	inactive: 5.37%
CP(=S)(Nn1cnnc1)Oc1ccccc1 (configuration not stated)	inactive: 2.29%
COc1ccc(OP(C)(=O)Nc2cccc(F)c2)cc1 (configuration not stated)	inactive: -0.31%
COc1ccccc1OP(C)(=O)Nc1cc(Cl)ccc1C (configuration not stated)	inactive: -5.41%
Cc1cc(C)cc(OP(C)(N)=O)c1 (configuration not stated)	inactive: 0.38%
CCOC(=O)c1ccc(NP(C)(=O)Oc2ccccc2)cc1 (configuration not stated)	inactive: -14.5%
Cc1ccc(NP(C)(=O)Oc2ccccc2)c(C)c1 (configuration not stated)	inactive: -15%
COc1ccccc1OP(C)(=O)Nc1ccc(C)cc1 (configuration not stated)	inactive: 2.86%
Cc1cccc(C)c1OP(C)(N)=O (configuration not stated)	inactive: 6.66%
CC(C)(C)c1ccc(OP(C)(=O)Nc2ccc(SC(F)(F)F)cc2)cc1 (configuration not stated)	inactive: -5.82%
O=[N+]([O-])c1ccc2c(c1)C=Nc1ccccc1O2	inactive: -2.55%
O=[N+]([O-])c1cc([N+](=O)[O-])c(Nc2cccnc2)c([N+](=O)[O-])c1	inactive: 3.13%
COc1ccccc1-c1ccccn1.O=[N+]([O-])c1cc([N+](=O)[O-])c(O)c([N+](=O)[O-])c1	inactive: 3.32%
CCN(CC)CCCOC(=O)C(O)(c1ccccc1)c1ccccc1	inactive: -0.9%

SMILES	inhibition
Cc1cc(C)cc(OP(C)(=O)Nc2ccccn2)c1 (configuration not stated)	inactive: -4.41%
CP(=O)(Nc1cccc(Br)c1)Oc1ccccc1 (configuration not stated)	inactive: -10.6%
Cc1ccc(C)c(NP(C)(=O)Oc2ccccc2)c1 (configuration not stated)	inactive: -6.3%
Cc1cc(C)cc(OP(C)(=O)Nc2ccc(C)cc2C)c1 (configuration not stated)	inactive: -1.63%
CCOC(=O)c1ccc(NP(C)(=O)Oc2cc(C)cc(C)c2)cc1 (configuration not stated)	inactive: -4.05%
COc1ccccc1OP(C)(=O)Nc1cccc(Br)c1 (configuration not stated)	inactive: 0.47%
CC1=NCCc2c1[nH]c1ccccc21.O=[N+]([O-])c1cc([N+](=O)[O-])c(O)c([N+](=O)[O-])c1	inactive: -1.12%
O=C(O)c1cccc(Nc2c([N+](=O)[O-])cc([N+](=O)[O-])cc2[N+](=O)[O-])c1	inactive: -4.64%
CCCOc1ccc(NP(C)(=O)Oc2ccc(Cl)cc2)cc1 (configuration not stated)	inactive: 3.03%
CP(=O)(Nc1ccc(SC(F)(F)F)cc1)Oc1ccccc1 (configuration not stated)	inactive: -0.85%
COc1ccc(-c2ccccn2)cc1.O=[N+]([O-])c1cc([N+](=O)[O-])c(O)c([N+](=O)[O-])c1	inactive: -14.1%
CN1CCCCC1COC(=O)C1(O)c2ccccc2CCc2ccccc21 (configuration not stated)	inactive: -4.79%
COc1ccccc1OP(C)(=O)Nc1c(C)cccc1C (configuration not stated)	inactive: 10.7%
CCOC(=O)C(CC)C1=NC(C)(C)Cc2ccccc21.O=[N+]([O-])c1cc([N+](=O)[O-])c(O)c([N+](=O)[O-])c1 (configuration not stated)	inactive: 5.79%
CC1=C2N=C(C=C3N=C(C(C)=C4[N-][C@@](C)([C@@H]5N=C1[C@](C)(CCC(=O)NC[C@@H](C)OP(=O)([O-])O[C@H]1[C@@H](O)[C@@H](n6cnc7cc(C)c(C)cc76)O[C@@H]1CO)[C@H]5CC(N)=O)[C@@](C)(CC(N)=O)[C@@H]4CCC(N)=O)[C@@](C)(CC(N)=O)[C@@H]3CCC(N)=O)C(C)(C)[C@@H]2CCC(N)=O.[C-]#N.[Co+3]	inactive: -0.5%
O=[N+]([O-])c1cc([N+](=O)[O-])c(Nc2nnnn2CCO)c([N+](=O)[O-])c1	inactive: -14%
Cc1nc2ccc3ccccc3c2s1.O=[N+]([O-])c1cc([N+](=O)[O-])c(O)c([N+](=O)[O-])c1	inactive: -1.37%
O=[N+]([O-])c1cc([N+](=O)[O-])c(-c2cnn(-c3ccccc3)c2)c([N+](=O)[O-])c1	inactive: -3.61%
CN(Cc1cccnc1)C(=O)COc1ccc(Cl)c(Cl)c1.O=[N+]([O-])c1cc([N+](=O)[O-])c(O)c([N+](=O)[O-])c1	inactive: -16%
O=[N+]([O-])c1cc([N+](=O)[O-])c(-n2nnc3ccccc32)c([N+](=O)[O-])c1	inactive: 1.3%
O=[N+]([O-])c1cc([N+](=O)[O-])c(C(F)(F)F)c([N+](=O)[O-])c1O	inactive: -23.8%
Cc1ccccc1NP(C)(=O)Nc1ccccc1C	inactive: -2.96%
CP(=O)(Nc1ccc2c(c1)OCCO2)Oc1ccccc1 (configuration not stated)	inactive: -10.6%
CCOP(C)(=S)SCC(=O)NC(C)(CC)C(=O)O (configuration not stated)	inactive: -7.97%
CP(=O)(Nc1ccc(SC(F)(F)F)cc1)Oc1ccc(F)cc1 (configuration not stated)	inactive: 0.86%
Cc1c(C(c2ccc3c(c2)OCO3)c2c(C)n(C)n(-c3ccccc3)c2=O)c(=O)n(-c2ccccc2)n1C.O=[N+]([O-])c1cc([N+](=O)[O-])c(O)c([N+](=O)[O-])c1	inactive: -5.05%

— PubChem BioAssay AID624267 (The Scripps Research Institute Molecular Screening Center, 2012)
